Compounds with a hit are over-represented: about 1.7% of the library has one in this group of screens.
CAL PDZ FP-1 = CAL PDZ (human) peptide binding inhibition; purified CAL PDZ, TMR-peptide fluorescence polarization, 1 h; hit rate 0.92% among 300,000; AID 602252; Q9HD26; inhibition, % at 24.9 µM;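 active means mean inhibition of at least 30% with at least half of replicates also reaching 30%; inconclusive means no clear call, values can overlap the other calls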
CAL PDZ FP-2 = human CAL PDZ-peptide interaction inhibition; Q9HD26; hit rate 0.02% among 330,000; purified CAL PDZ, TMR-peptide fluorescence polarization, 1 h; inhibition, % at 20 µM;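 active means highest replicate inhibition of at least 40%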
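Read-out basis: mP drop reported as inhibition | Assay system: Tagged CAL PDZ protein CerCALP, purified | Benchmarks: Unlabelled peptide for full inhibition, DMSO wells as neutral | Schedule: 1 h incubation at room temperature before polarization reading | Buffer or medium: Sodium phosphate/NaCl buffer pH 7.4 with TCEP, IgG, Thesit | Doses: Single point, 20 µM | Measured by: Fluorescence polarization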
UUG fidelity = modulators of yeast start codon fidelity, primary screen, whole organism, S. cerevisiae, single point, plate reader | AID 602363, 2012 | S. cerevisiae UUG-firefly luciferase reporter, luminescence/redox ratio | activity score, % at 18.7 µM | hit rate 0.13% among 350,000;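 active = replicate mean at a twofold rise or more, about +100% in these data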;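 also: firefly luciferase made from a UUG start codon reports start codon fidelity; reporter light over untreated wells divided by growth signal over untreated wells; some hits fall short of that in this replicate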
dFosB act-1 = activators of mouse delta FosB homodimer | hit rate 0.99% among 340,000 | activation, % at 25 µM | purified delta FosB, TAMRA-CDK5 oligo fluorescence polarization; percent of positive-control signal above neutral wells | P13346;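 active means mean activation above about 17%, with every replicate also reaching it, limit read from the data, passing the limit was not always enough; inconclusive means only one of the two conditions met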
CDK5 inh = inhibitors of human CDK5/p35 kinase; Recombinant CDK5/p35, ADP-Glo luminescence, 60 min; inhibition, % at 10 µM; hit rate 0.01% among 330,000;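 active means highest replicate inhibition of at least 50% and at least 75% of replicates reaching 50%; inconclusive means only one of the two criteria met; inactive means both criteria failed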
Dyrk1A ADPGlo = Dyrk1A (rat) kinase inhibition; Q63470; ADP-Glo luminescence, NFATc1 peptide; inhibition, % at 12.5 µM; hit rate 0.43% among 310,000; AID 504441; in the data active means inhibition above about 50%
dFosB act-2 = enhances mouse delta FosB homodimer binding to DNA; purified delta FosB, TAMRA-CDK5 oligo fluorescence polarization; normalised: neutral wells 0, positive control 100; AID 588690; 2,400 tested, under 10 active; activation, % at 24.9 µM; shares compounds with dFosB act-1;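 active means highest replicate activation at or above 34% and every replicate reaching that threshold; inconclusive means meets only one of the two criteria; inactive means meets neither criterion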;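 further: higher polarization means more probe DNA bound by delta FosB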
Hits are given with their value; n = inactive; u = inconclusive; x = no result given.

SMILES	CAL PDZ FP-1	CAL PDZ FP-2	UUG fidelity	dFosB act-1	CDK5 inh	Dyrk1A ADPGlo	dFosB act-2
C[C@H]1CN([C@@H](C)CO)C(=O)c2cc(NS(=O)(=O)c3ccccc3)ccc2O[C@@H]1CN(C)S(=O)(=O)c1cccs1	x	x	n	x	x	x	x
C#CCOCCOCCOCCNc1nc(N2CCN(C(=O)[C@H]([C@@H](C)CC)n3cc([C@@H](N)Cc4ccc(O)cc4)nn3)CC2)nc(N2CCN(C(=O)[C@H](CCCCN)n3cc([C@@H](N)C(C)CC)nn3)CC2)n1 (some centres not stated)	n	n	n	22.9	n	n	n
C#CCOCCOCCOCCNc1nc(N2CCOCC2)nc(N2CCN(C(=O)[C@H]([C@@H](C)CC)n3cc([C@@H](N)CO)nn3)CC2)n1	n	n	n	n	n	n	x
C#CCOCCOCCOCCNc1nc(N2CCN(C(=O)[C@H]([C@@H](C)CC)n3cc([C@@H](N)CO)nn3)CC2)nc(N2CCN(C(=O)[C@H](Cc3ccc(O)cc3)n3cc([C@@H](N)C(C)CC)nn3)CC2)n1 (some centres not stated)	n	n	n	n	n	n	x
C#CCOCCOCCOCCNc1nc(N2CCN(C(=O)[C@H]([C@@H](C)CC)n3cc([C@@H](N)CC(C)C)nn3)CC2)nc(N2CCN(C(=O)[C@H]([C@@H](C)CC)n3cc([C@@H](N)CC(C)C)nn3)CC2)n1	n	n	n	30.7	n	n	n
OC[C@H]1[C@H](c2ccc(-c3ccccc3F)cc2)[C@H]2CN(Cc3ccncc3)CCCCN21	x	x	n	x	x	x	x
CC(=O)N(C)C[C@@H]1Oc2cc(C#CCN(C)C)ccc2S(=O)(=O)N([C@@H](C)CO)C[C@H]1C	x	x	n	x	x	x	x
CO[C@@H]1CN(C)C(=O)c2cc(NC(=O)Nc3ccccc3Cl)ccc2OC[C@@H](C)N(Cc2ccccc2C(=O)O)C[C@H]1C	x	x	n	x	x	x	x
CCOC(=O)c1sc(NC(=O)Nc2ccc(Cl)cc2)cc1C	n	n	n	24.1	n	n	n
COc1ccc(S(=O)(=O)N2C[C@H](O)COC[C@@H]3O[C@@H](CC(=O)NCc4ccc(Cl)c(Cl)c4)CC[C@H]32)cc1	x	x	n	x	x	x	x
Cc1[nH]nc2nc(SCC(=O)NC3CCCCC3)n(-c3ccc(Br)cc3)c(=N)c12	n	n	n	51.8	x	x	n
CCc1ccccc1NC(=O)CSc1nc2n[nH]c(C)c2c(=N)n1-c1ccc(OC)cc1	n	n	n	n	n	n	x
COc1ccccc1NC(=O)CSc1nc2n[nH]c(C)c2c(=N)n1-c1ccccc1Cl	n	n	x	53.1	n	n	n
CNC(=O)C[C@H]1CC[C@@H]2[C@H](COc3ccc(NC(=O)Nc4ccc(C)cc4)cc3C(=O)N2C)O1	x	x	n	x	x	x	x
COC(=O)c1sc2ncccc2c1OCc1cccc(Cl)c1	n	n	n	n	n	n	x
COC(=O)c1sc2ncccc2c1OCc1c(Cl)cccc1Cl	x	n	n	35.2	n	n	n
CN1C(=O)c2cc(NC(=O)c3ccc(F)cc3)ccc2OC[C@@H]2O[C@H](CC(=O)NCC3CCCCC3)CC[C@@H]21	x	x	n	x	x	x	x
COc1ccc(Br)cc1-c1noc(-c2ccccc2)n1	x	n	n	27.4	n	n	u
CN(C)CC(=O)Nc1ccc2c(c1)[C@@H]1C[C@H](CC(=O)NCc3cccnc3)O[C@@H](CO)[C@@H]1O2	x	x	n	x	x	x	x
NC(=S)N/N=C/c1coc2cc(Br)ccc2c1=O	n	n	x	24.3	n	n	n
CC(=O)N(C)C[C@H]1Oc2cc(C#Cc3ccccc3)ccc2S(=O)(=O)N([C@@H](C)CO)C[C@@H]1C	x	x	n	x	x	x	x
CCOc1ccc(NC(=O)NCCCn2c(C)nc3cc(C)c(C)cc32)cc1	x	n	x	n	n	n	x
Cc1cc2nc(C)n(CCCNC(=O)Nc3cccc4ccccc34)c2cc1C	x	n	x	53.2	n	n	n
O=C(NC1CCCCC1)N[C@H]1CC[C@@H](CCNS(=O)(=O)c2ccc(F)cc2)O[C@@H]1CO	x	x	n	x	x	x	x
O=C(COc1ccc(F)cc1)Nc1cc(Cl)ccc1-n1cncn1	n	n	n	26.2	n	n	n
SMILES	CAL PDZ FP-1	CAL PDZ FP-2	UUG fidelity	dFosB act-1	CDK5 inh	Dyrk1A ADPGlo	dFosB act-2
CCOc1ccc(OCC(=O)Nc2cc(Cl)ccc2-n2cncn2)cc1	x	x	n	x	x	x	x
CC(=O)c1ccc(NC(=O)c2ccc(NC(=O)CCS(=O)(=O)c3cccs3)cc2)cc1	n	n	n	n	n	n	x
COc1ccc(C(=O)Nc2ccc(NC(=O)c3cccs3)cn2)cc1	n	n	n	33.1	n	n	n
COc1ccc(C(=O)NCC(=O)Nc2ccc(-c3ccccc3)cc2)cc1	n	n	n	37.9	n	n	n
COc1ccc(NC(=O)c2ccc(NC(=O)CCS(=O)(=O)c3cccs3)cc2)cc1	x	n	n	29.7	n	n	n
C[C@@H]1CN([C@H](C)CO)C(=O)c2cc(NC(=O)Nc3ccc4c(c3)OCO4)ccc2O[C@@H](C)CCCCO[C@H]1CN(C)Cc1ccccc1	x	x	n	x	x	x	x
Cc1c(C2=CCN(S(=O)(=O)c3ccc(Br)cc3)CC2)c2ccccc2n1C	n	n	x	31.9	n	n	n
Cc1cc(C)c(NC(=O)CS(=O)CC(=O)Nc2ccc(F)cc2F)c(C)c1 (configuration not stated)	n	n	n	22.6	n	n	n
C[C@H]1CN([C@@H](C)CO)C(=O)c2cccc(NC(=O)C3CCOCC3)c2O[C@H]1CN(C)CC1CC1	x	x	n	x	x	x	x
Cc1ccc(CNC(=O)CC(C)S(=O)(=O)c2cc3c(cc2C)NC(=O)CO3)cc1 (configuration not stated)	x	n	n	23.5	n	n	n
CC(CC(=O)NCc1ccc(Cl)cc1)S(=O)(=O)c1ccc2c(c1)NC(=O)CO2 (configuration not stated)	n	n	n	n	n	n	x
Cc1cc(C)cc(NC(=O)Cn2nnc(C(=O)NCc3cccs3)c2N)c1	n	n	x	58.3	x	x	n
Cc1cccc(NC(=O)Cn2nnc(C(=O)NCc3cccs3)c2N)c1C	n	n	n	42.3	n	n	n
CCc1ccccc1NC(=O)c1nnn(CC(=O)Nc2cccc(C)c2)c1N	n	n	n	n	n	n	x
Cc1ccc(NC(=O)Cn2nnc(C(=O)NCc3cccs3)c2N)c(C)c1	x	n	n	n	n	n	x
CCc1ccccc1NC(=O)c1nnn(CC(=O)Nc2cccc(C)c2C)c1N	n	x	n	42.4	n	n	n
Cc1c(Cl)cccc1NC(=O)Cn1nnc(C(=O)NCc2cccs2)c1N	n	n	x	39.3	n	n	n
Cc1cc(C)c(NC(=O)Cn2nnc(C(=O)NCc3cccs3)c2N)c(C)c1	n	n	n	n	n	n	x
O=C(O)C[C@H]1CC[C@H](NC(=O)Nc2cc(F)ccc2F)[C@@H](CO)O1	x	x	n	x	x	x	x
COc1ccc(/C=N/NC(=O)c2ccncc2)cc1CN1CCOCC1	n	n	x	n	n	n	x

Source: PubChem
